Test results from PubChem BioAssay (Tox21).
The list shows a part of the results, in another mix than the full data. Results filed as inconclusive are left out. Activity calls are given as the source filed them. Unless noted, calls follow the shape of the full dose curve.

Amino acid sequences for entries named in this document (tags omitted).
UniProt P11229, whole entry: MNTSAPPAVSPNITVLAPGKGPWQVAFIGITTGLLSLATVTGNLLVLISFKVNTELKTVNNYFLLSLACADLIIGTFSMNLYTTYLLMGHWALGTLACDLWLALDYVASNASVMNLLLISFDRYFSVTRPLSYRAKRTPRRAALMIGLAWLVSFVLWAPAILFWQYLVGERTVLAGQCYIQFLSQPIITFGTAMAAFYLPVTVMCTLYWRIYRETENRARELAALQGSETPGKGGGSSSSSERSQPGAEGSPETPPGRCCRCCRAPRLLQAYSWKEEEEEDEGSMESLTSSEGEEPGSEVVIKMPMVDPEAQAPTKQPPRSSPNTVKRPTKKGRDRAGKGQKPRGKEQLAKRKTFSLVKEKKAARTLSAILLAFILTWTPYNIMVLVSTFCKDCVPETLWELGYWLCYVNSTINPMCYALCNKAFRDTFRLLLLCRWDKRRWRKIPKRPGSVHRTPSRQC
UniProt P07550, whole entry: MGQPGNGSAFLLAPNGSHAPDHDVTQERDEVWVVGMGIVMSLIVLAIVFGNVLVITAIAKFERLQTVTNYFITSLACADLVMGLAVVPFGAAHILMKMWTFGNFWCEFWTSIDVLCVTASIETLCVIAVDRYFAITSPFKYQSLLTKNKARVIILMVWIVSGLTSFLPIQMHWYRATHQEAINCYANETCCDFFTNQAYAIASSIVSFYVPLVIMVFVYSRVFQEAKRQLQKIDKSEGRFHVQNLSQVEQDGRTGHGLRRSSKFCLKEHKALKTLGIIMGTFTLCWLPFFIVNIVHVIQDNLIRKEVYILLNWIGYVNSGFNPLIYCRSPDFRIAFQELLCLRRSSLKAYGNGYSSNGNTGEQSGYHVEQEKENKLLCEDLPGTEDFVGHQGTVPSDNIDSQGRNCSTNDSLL
UniProt P14416, whole entry: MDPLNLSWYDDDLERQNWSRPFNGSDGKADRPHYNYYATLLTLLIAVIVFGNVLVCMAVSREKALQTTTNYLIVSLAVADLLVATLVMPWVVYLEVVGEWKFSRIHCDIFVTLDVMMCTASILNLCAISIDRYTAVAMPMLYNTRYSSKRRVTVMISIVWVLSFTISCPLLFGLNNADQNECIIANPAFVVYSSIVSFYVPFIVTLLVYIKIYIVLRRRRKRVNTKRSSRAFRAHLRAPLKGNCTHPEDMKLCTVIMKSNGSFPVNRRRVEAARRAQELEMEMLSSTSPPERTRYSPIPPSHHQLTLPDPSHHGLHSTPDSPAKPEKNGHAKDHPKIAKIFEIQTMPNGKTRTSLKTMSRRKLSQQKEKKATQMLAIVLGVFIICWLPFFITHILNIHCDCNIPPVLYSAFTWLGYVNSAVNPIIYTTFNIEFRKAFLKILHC
UniProt P30968, whole entry: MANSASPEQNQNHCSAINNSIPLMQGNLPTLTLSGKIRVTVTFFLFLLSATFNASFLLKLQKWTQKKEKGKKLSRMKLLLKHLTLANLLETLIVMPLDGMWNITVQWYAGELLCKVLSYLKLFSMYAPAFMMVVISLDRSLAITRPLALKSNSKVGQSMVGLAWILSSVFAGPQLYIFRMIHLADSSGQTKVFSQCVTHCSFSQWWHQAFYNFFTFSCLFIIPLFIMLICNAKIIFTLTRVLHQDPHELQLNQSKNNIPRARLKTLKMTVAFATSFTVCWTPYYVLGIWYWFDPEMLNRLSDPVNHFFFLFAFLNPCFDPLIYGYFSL
UniProt Q969F8, whole entry: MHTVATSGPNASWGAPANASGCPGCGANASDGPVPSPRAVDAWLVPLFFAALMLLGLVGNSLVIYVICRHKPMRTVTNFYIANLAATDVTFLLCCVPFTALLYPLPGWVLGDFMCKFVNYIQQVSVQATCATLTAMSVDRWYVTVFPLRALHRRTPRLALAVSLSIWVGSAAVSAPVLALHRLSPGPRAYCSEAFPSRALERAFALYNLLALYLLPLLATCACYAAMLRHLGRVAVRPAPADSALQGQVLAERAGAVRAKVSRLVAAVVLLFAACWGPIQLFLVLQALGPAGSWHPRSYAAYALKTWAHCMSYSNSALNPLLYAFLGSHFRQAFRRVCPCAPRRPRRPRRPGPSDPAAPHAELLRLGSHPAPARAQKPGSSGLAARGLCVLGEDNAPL
UniProt P28223, whole entry: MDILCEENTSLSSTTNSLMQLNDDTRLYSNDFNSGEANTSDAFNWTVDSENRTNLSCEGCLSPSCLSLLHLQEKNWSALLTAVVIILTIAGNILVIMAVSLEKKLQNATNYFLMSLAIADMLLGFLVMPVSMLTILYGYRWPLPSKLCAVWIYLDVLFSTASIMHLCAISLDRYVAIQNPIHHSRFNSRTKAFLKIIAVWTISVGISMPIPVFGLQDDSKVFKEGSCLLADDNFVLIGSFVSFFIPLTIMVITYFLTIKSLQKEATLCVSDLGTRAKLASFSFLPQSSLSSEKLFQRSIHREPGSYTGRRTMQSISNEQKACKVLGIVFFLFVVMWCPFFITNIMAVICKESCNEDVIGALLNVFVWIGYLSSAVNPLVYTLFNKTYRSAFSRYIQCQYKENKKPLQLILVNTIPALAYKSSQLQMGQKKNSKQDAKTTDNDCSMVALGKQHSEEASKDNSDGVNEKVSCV

Legend:
[1] = biological target: Muscarinic acetylcholine receptor M1 (Homo sapiens) (UniProt P11229); assay: Cholinergic receptor muscarinic 1 (CHRM1) small molecule agonists, cell-based qHTS assay (AID 1963589); also: nearly all actives have a fitted effect of over 35% in size; also: potency is read from the fitted curve at half-maximal effect
Summary of the method: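 Kinetic fluorescence (1 s intervals) of calcium-sensitive dye in human M1 CHO cells after compound addition; cells pre-incubated 18 h at 37 C/5% CO2 and dye-loaded 1 h.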

[2] = Nuclear factor erythroid 2-related factor 2/antioxidant responsive element (Nrf2/ARE) small molecule agonists: qHTS cell viability counter screen in human keratinocytes (AID 1919968; active = well fitted curve in the direction sought with a large enough effect in the repeat runs; an effect the other way counts as inactive or inconclusive; also: nearly all actives have a fitted effect of over 55% in size; also: potency is read from the fitted curve at half-maximal effect)
Summary of the method: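 Stably transfected HaCaT (KeratinoSens), 1,500/well. Test agents in DMSO were applied for 23 h, 37 C/5% CO2. CellTiter-Fluor was incubated 1 h before the fluorescence read.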

[3] = p53 small molecule agonists, cell-based qHTS assay with human liver microsomes: qHTS cell viability counter screen (AID 1963579); conditions: p53RE-bla HCT-116 viability, ATP luminescence, 16 h, HLM; also: potency is read from the fitted curve at half-maximal effect; nearly all actives have a fitted effect of over 45% in size
Summary of the method: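 HLM-supplemented (0.5 mg/mL final) and NADPH-supplemented (0.5 mg/mL final) p53RE-bla cultures, 4,000 cells per well, were dosed with compounds in DMSO for 16 h at 37 C; luminescent ATP detection (CellTiter-Glo, 30 min, room temperature) quantified surviving cells.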

[4] = Nuclear factor erythroid 2-related factor 2/antioxidant responsive element (Nrf2/ARE) small molecule agonists: luciferase reporter gene qHTS assay in human keratinocytes (AID 1919969); conditions: KeratinoSens HaCaT ARE-luciferase, luminescence, 24 h; also: potency is read from the fitted curve at half-maximal effect; nearly all actives have a fitted effect of over 35% in size
Source text: National Center for Advancing Translational Sciences [NCATS]
Division of Preclinical Innovation [DPI]
U.S. Environmental Protection Agency [EPA]
National Institutes of Environmental Health Sciences [NIEHS]
National Toxicology Program [NTP]
U.S. Food and Drug Administration [FDA]
Oxidative stress has been implicated in the pathogenesis of a variety of diseases ranging from cancer to neurodegeneration. The antioxidant response element (ARE) signaling pathway plays an important role in the amelioration of oxidative stress. The KeratinoSens (Givaudan, Switzerland) is an in vitro test method which quantifies luciferase induction as a measure of activation of Keap1-Nrf2-antioxidationt/electrophile response element (ARE) dependant pathway in HaCaT human keratinocytes stably transfected with a selectable plasmid. The KeratinoSens assay is a cell-based assay with a reporter cell line to detect potential skin sensitizers by their ability to induce the Nrf2/ARE-response. The activation of the report gene under culture conditions can be detected by ONE-Glo Luciferase Assay System (Promega, Madison, WI). This cell line has been used to screen the Tox21 10K compound library to identify agonists that induce oxidative stress. […]
HaCaT derived cell line KeratinoSens were dispensed at 1,500 cells/5uL/well in 1536-well white wall/solid bottom plates using a Multidrop Combi (ThermoFisher Scientific, Waltham, MA) dispenser. […] The plates were incubated at 37 C/5% CO2 for 23 h, followed by addition of 1uL/well of CellTiter-Fluor reagent into the assay plates using a Flying Reagent Dispenser (Aurora Discovery, San Diego, CA) for cell viability readout that measures cytotoxicity. After 1 h incubation at 37 C/5% CO2 the fluorescence intensity was measured using a ViewLux (PerkinElmer, Shelton, CT) plate reader. […] After the plates were incubated at room temperature for 30 min, the luminescence intensity in the assay plates was measured using ViewLux plate reader.

[5] = p53 small molecule agonists, cell-based qHTS assay with rat liver microsomes: qHTS cell viability counter screen (AID 1963580); also: nearly all actives have a fitted effect of over 45% in size; also: potency is read from the fitted curve at half-maximal effect
Summary of the method: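 Cytotoxicity counter screen: intracellular ATP read by CellTiter-Glo luminescence in the p53 reporter wells. HCT-116 p53RE-bla cells were treated for 16 h at 37 C alongside rat liver microsomes and NADPH, each 0.5 mg/mL final.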

[6] = biological target: Beta-2 adrenergic receptor (Homo sapiens) (UniProt P07550); assay: Adrenergic beta2 receptor (ADRB2) small molecule antagonists, cell-based qHTS assay (AID 1963592); conditions: CHO-ADRB2 cells, isoproterenol-stimulated cAMP HTRF ratio, 0.5 h; also: potency is read from the fitted curve at half-maximal effect; nearly all actives have a fitted effect of over 50% in size
Summary of the method: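 Assay format: CHO-ADRB2 cells, 18-20hr seeding at 37C/5% CO2, then compound plus 1nM isoproterenol agonist mix for 0.5hr RT. Homogeneous time-resolved fluorescence cAMP detection after 1hr, expressed as 665/615 nm ratio.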

[7] = biological target: D(2) dopamine receptor (Homo sapiens) (UniProt P14416); assay: Dopamine D2 receptor (DRD2) small molecule antagonists, cell-based qHTS assay (AID 1963595; active = well fitted inhibition curve with a large enough effect in the signal ratio in the repeat runs, with a control signal flat; the % refers to the signal ratio; also: potency is read from the fitted curve at half-maximal effect); conditions: HEK293-DRD2 cAMP HTRF antagonist mode
Summary of the method: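 Cells were plated and grown for 24 h at 37 °C. Ro20-1724 (0.1 mM final) went in first, then compound for 10 min. NKH477 (200 nM) with quinpirole (12 nM) followed for 30 min at RT, then HTRF detection reagents for 1 h.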

[8] = biological target: Muscarinic acetylcholine receptor M1 (Homo sapiens) (UniProt P11229); assay: Cholinergic receptor muscarinic 1 (CHRM1) small molecule antagonists, cell-based qHTS assay (AID 1963588); conditions: CHRM1-CHO antagonist mode, calcium flux fluorescence; at 28.3 µM (top of the series); also: % is scaled to controls: 0 for no effect and ±100 for the full control effect; nearly all actives have a fitted effect of over 40% in size
Summary of the method: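 Compounds were tested at 15 concentrations in three independent runs. Dye-loaded CHRM1-CHO cells were exposed 5 min at room temperature before stimulation by acetylcholine added at 50nM. Intracellular calcium was read kinetically on FDSS for 3 min.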

[9] = cAMP Responsive Elements (CRE) small molecule antagonists, cell-based qHTS assay (AID 1963591; active = well fitted inhibition curve with a large enough effect in the signal ratio in the repeat runs, not every such curve was filed as active; the % refers to the signal ratio; also: % is scaled to controls: 0 for no effect and ±100 for the full control effect); conditions: CRE-bla HEK293T, beta-lactamase FRET ratio; at 92.4 µM (top of the series)
Summary of the method: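 Reporter line CRE-bla HEK 293T in dialyzed-FBS DMEM; cells preincubated 18 h, treated 3 h with compound plus NKH477 (0.25 uM final); LiveBLAzer FRET, 2 h RT.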

[10] = biological target: Gonadotropin-releasing hormone receptor (Homo sapiens) (UniProt P30968); assay: Human gonadotropin-releasing hormone receptor (GnRHR) small molecule agonists, calcium flux assay in GnRHR-HEK293 cells (AID 1920063); conditions: calcium flux fluorescence, agonist mode; also: potency is read from the fitted curve at half-maximal effect; nearly all actives have a fitted effect of over 35% in size
Summary of the method: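 Stable human GnRHR HEK293 line. 18 h plating, then calcium dye for 1 h at 37 C. Agonist-mode compound addition from DMSO stocks; fluorescence monitored 3 min.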

[11] = biological target: KiSS-1 receptor (Homo sapiens) (UniProt Q969F8); assay: Human kisspeptin (KISS1R) small molecule agonists, calcium flux assay in KISS1R-HEK293 cells (AID 1920064; active = well fitted curve in the direction sought with a large enough effect in the repeat runs; an effect the other way counts as inactive or inconclusive; also: potency is read from the fitted curve at half-maximal effect); conditions: KISS1R-HEK293, calcium flux fluorescence, agonist
Summary of the method: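 After overnight (18 h) culture at 37 C/5% CO2, human KISS1R-HEK293 cells received calcium dye for 1 h, then test compound; emission at 540 nm (excitation 480 nm) was tracked for 3 min.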

[12] = biological target: 5-hydroxytryptamine receptor 2A (Homo sapiens) (UniProt P28223); assay: 5-hydroxytryptamine receptor 2A (HTR2A) small molecule agonists, cell-based qHTS assay (AID 1963587); conditions: HTR2A-CHO cells, calcium flux fluorescence, agonist mode; also: potency is read from the fitted curve at half-maximal effect; nearly all actives have a fitted effect of over 30% in size
Summary of the method: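 Kinetic calcium-flux fluorescence (2 min, 1 sec intervals) after compound addition in agonist mode. HTR2A-CHO cells were cultured 18 h, then dye-loaded 1 h at 37 C.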

SMILES: Cc1cccc([N+](=O)[O-])c1[N+](=O)[O-]
- Potency [1]: inactive

SMILES: CCCCCCCCCCCCCC[P+](CCCCCC)(CCCCCC)CCCCCC.F[P-](F)(F)(F)(F)F
- Potency [2]: active: 10.8 µM
- Potency [3]: active: 16.2 µM

SMILES: CC(C)OP(C)(=O)OC(C)C
- Potency [2]: inactive
- Potency [4]: active: 54.5 µM
- Potency [5]: inactive

SMILES: O=[N+]([O-])c1ccc([N+](=O)[O-])cc1
- Potency [4]: active: 61.1 µM

SMILES: O=[As]c1ccccc1 (stereo not given)
- Potency [6]: active: 54.5 µM
- Potency [7]: active: 1.22 µM

SMILES: N#CSc1ccc([N+](=O)[O-])cc1[N+](=O)[O-]
- Potency [2]: active: 13.7 µM
- Potency [3]: active: 18.2 µM
- Potency [7]: active: 17.2 µM

SMILES: OCCSCCO
- activity, negative = inhibition [8]: inactive: 0.275%

SMILES: O=C(Cl)OCCOC(=O)Cl
- activity change, negative = inhibition [9]: inactive: -1.76%

SMILES: O=C1C2CC=CCC2C(=O)N1SC(Cl)(Cl)C(Cl)Cl (stereo not given)
- Potency [5]: active: 22.9 µM
- Potency [1]: active: 15.5 µM

SMILES: Cc1ccc([N+](=O)[O-])c([N+](=O)[O-])c1
- Potency [4]: active: 27.9 µM
- Potency [10]: active: 15.5 µM
- Potency [11]: active: 12.3 µM
- Potency [12]: active: 12.3 µM
